Test results from patent US8034936B2, “Spirocyclic cyclohexane compounds useful to treat substance dependency” (Gruenenthal GmbH, priority 2005, dated 2011).
Like-named read-outs stand apart in the source and are kept apart here.

Chains of the proteins cited; added tags and fusions are not shown. Lines headed by an entry give the natural chain unless they say otherwise; changes in a name come on top.
UniProt P35372, whole entry, looked up: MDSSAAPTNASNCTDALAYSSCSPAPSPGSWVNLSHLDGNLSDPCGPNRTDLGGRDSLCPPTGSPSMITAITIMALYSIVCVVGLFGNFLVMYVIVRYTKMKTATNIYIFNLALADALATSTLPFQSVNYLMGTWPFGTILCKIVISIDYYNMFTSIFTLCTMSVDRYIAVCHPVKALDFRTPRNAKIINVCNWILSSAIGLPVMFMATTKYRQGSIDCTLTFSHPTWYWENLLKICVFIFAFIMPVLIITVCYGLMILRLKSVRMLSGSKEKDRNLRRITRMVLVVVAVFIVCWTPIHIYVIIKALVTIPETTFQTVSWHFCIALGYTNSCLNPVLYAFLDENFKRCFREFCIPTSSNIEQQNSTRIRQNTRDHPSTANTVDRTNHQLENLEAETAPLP
UniProt P41146: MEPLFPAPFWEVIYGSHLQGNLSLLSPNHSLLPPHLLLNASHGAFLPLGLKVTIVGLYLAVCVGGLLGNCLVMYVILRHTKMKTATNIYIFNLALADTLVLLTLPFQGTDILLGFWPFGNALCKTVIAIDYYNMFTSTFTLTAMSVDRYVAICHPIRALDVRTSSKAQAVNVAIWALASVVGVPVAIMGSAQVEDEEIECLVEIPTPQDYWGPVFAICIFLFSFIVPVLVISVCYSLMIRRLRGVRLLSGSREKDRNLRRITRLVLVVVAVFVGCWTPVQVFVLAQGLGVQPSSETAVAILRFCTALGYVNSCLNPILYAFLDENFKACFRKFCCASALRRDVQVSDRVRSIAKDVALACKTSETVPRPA

What was measured:
human μ-opiate receptor = human μ-opiate receptor (Homo sapiens, UniProt P35372); assay: μ-opiate receptor binding, [3H]-naloxone displacement, CHO-K1 membrane preparation
ORL1 receptor = ORL1 receptor (Homo sapiens, UniProt P41146); assay: ORL1 receptor binding assay with 3H-nociceptin/orphanin FQ, membranes of recombinant CHO-ORL1 cells
[1] = read-out: ORL1 human Ki, No. 1-49

SMILES | Ki (human μ-opiate receptor; read-out: μ Ki, No. 1-49) | ORL1/μ Ratio calculated as Ki(μ)/Ki(ORL1) (ORL1 receptor; No. 1-49) | Ki (ORL1 receptor; [1]) | Ki (human μ-opiate receptor; read-out: μ, Ki, No. 50-145) | ORL1/μ ratio (ORL1 receptor; No. 50-145) | Ki (ORL1 receptor; read-out: ORL1, Ki, No. 50-145) | μ-opiate-receptor [1 μM], % inhibition (human μ-opiate receptor) | ORL-1 [1 μM], % inhibition (ORL1 receptor)
CC1Cc2c([nH]c3ccc(Cl)cc23)C2(CCC(c3ccccc3)(N(C)C)CC2)O1 (stereo not shown) | 110 nM | 1.77 | 60 nM |  |  |  |  | 
CN(C)C1(Cc2ccccc2)CCC2(CC1)c1[nH]c3ccccc3c1CCN2C(=O)c1c(F)cccc1C(F)(F)F (stereo not shown) |  |  |  | 34 nM | 0.62 | 55 nM |  | 
CNC1(c2cccs2)CCC2(CC1)OCCc1c2[nH]c2ccc(F)cc12 (stereo not shown) | 2.8 nM | 0.7 | 4.2 nM |  |  |  |  | 
CN(C)C1(c2ccccc2)CCC2(CC1)OCCc1c2[nH]c2ccc(Br)cc12 (stereo not shown) | 20 nM | 0.37 | 50 nM |  |  |  |  | 
CCC(=O)N1CCc2c([nH]c3ccccc23)C12CCC(c1cccc(F)c1)(N(C)C)CC2 (stereo not shown) |  |  |  | 61 nM | 1.07 | 57 nM |  | 
CN(C)C1(Cc2ccccc2)CCC2(CC1)c1[nH]c3ccccc3c1CCN2C(=O)c1ccc(C(C)(C)C)cc1 (stereo not shown) |  |  |  | 59 nM | 0.54 | 110 nM |  | 
CN(C)C1(c2cccc(F)c2)CCC2(CC1)c1[nH]c3ccccc3c1CCN2C(=O)c1cc(Cl)cc(Cl)c1 (stereo not shown) |  |  |  | 16 nM | 0.53 | 30 nM |  | 
CCCCC(CC)C(=O)N1CCc2c([nH]c3ccccc23)C12CCC(c1ccccc1)(N(C)C)CC2 (stereo not shown) |  |  |  | 49 nM | 1.04 | 47 nM |  | 
CN(C)C1(c2cccc(F)c2)CCC2(CC1)c1[nH]c3ccccc3c1CCN2C(=O)c1cc(F)cc(C(F)(F)F)c1 (stereo not shown) |  |  |  | 3.3 nM | 1.00 | 3.3 nM |  | 
CN(C)C1(c2ccccc2)CCC2(CC1)c1[nH]c3ccccc3c1CCN2C(=O)c1ccco1 (stereo not shown) |  |  |  | 34 nM | 0.87 | 39 nM |  | 
CN(C)C1(c2ccccc2)CCC2(CC1)c1[nH]c3ccccc3c1CCN2C(=O)c1c(F)cccc1F (stereo not shown) |  |  |  | 15 nM | 1.50 | 10 nM |  | 
CN(C)C1(Cc2ccccc2)CCC2(CC1)c1[nH]c3ccccc3c1CCN2C(=O)c1ccc(C(F)(F)F)cc1 (stereo not shown) |  |  |  | 21 nM | 1.91 | 11 nM |  | 
Cc1ccc2[nH]c3c(c2c1)CC(C)OC31CCC(c2ccccc2)(N(C)C)CC1 (stereo not shown) | 14 nM | 3.18 | 4.4 nM |  |  |  |  | 
CN(C)C1(c2cccc(F)c2)CCC2(CC1)c1[nH]c3ccccc3c1CCN2C(=O)Cc1cccs1 (stereo not shown) |  |  |  | 36 nM | 2.12 | 17 nM |  | 
CN(C)C1(Cc2ccccc2)CCC2(CC1)c1[nH]c3ccccc3c1CCN2C(=O)c1cc(F)cc(C(F)(F)F)c1 (stereo not shown) |  |  |  | 14 nM | 1.82 | 7.7 nM |  | 
CN(C)C1(c2ccccc2)CCC2(CC1)OCCc1c2[nH]c2ccc(-c3nccs3)cc12 (stereo not shown) |  |  |  |  |  |  | 92% | 27%
CN(C)C1(CCc2ccccc2)CCC2(CC1)c1[nH]c3ccccc3c1CCN2C(=O)c1cc(F)c(F)c(F)c1F (stereo not shown) |  |  |  |  |  |  | 91% | 31%
CN(C)C1(c2cccc(F)c2)CCC2(CC1)c1[nH]c3ccccc3c1CCN2C(=O)c1ccc(C(C)(C)C)cc1 (stereo not shown) |  |  |  | 9.5 nM | 1.06 | 9 nM |  | 
COc1ccc2[nH]c3c(c2c1)CCOC31CCC(c2ccccc2)(N(C)C)CC1 (stereo not shown) | 2 nM | 0.34 | 6 nM |  |  |  |  | 
CN(C)C1(c2cccc(F)c2)CCC2(CC1)c1[nH]c3ccccc3c1CCN2C(=O)c1ccccc1 (stereo not shown) |  |  |  | 8.5 nM | 2.50 | 3.4 nM |  | 
CN(C)C1(c2cccc(F)c2)CCC2(CC1)c1[nH]c3ccccc3c1CCN2C(=O)c1cc(F)c(F)c(F)c1F (stereo not shown) |  |  |  | 1.8 nM | 0.90 | 2 nM |  | 
CN(C)C1(Cc2ccccc2)CCC2(CC1)c1[nH]c3ccccc3c1CCN2C(=O)c1cc(F)ccc1F (stereo not shown) |  |  |  |  |  |  | 82% | 41%
CN(C)C1(c2cccc(F)c2)CCC2(CC1)c1[nH]c3ccccc3c1CCN2C(=O)c1cccc(F)c1F (stereo not shown) |  |  |  | 2.5 nM | 1.79 | 1.4 nM |  | 
CN(C)C1(c2ccccn2)CCC2(CC1)NCCc1c2[nH]c2ccccc12 (stereo not shown) | 2.8 nM | 1.75 | 1.6 nM |  |  |  |  | 

SMILES | Ki (human μ-opiate receptor; read-out: μ Ki, No. 1-49) | ORL1/μ Ratio calculated as Ki(μ)/Ki(ORL1) (ORL1 receptor; No. 1-49) | Ki (ORL1 receptor; [1]) | Ki (human μ-opiate receptor; read-out: μ, Ki, No. 50-145) | ORL1/μ ratio (ORL1 receptor; No. 50-145) | Ki (ORL1 receptor; read-out: ORL1, Ki, No. 50-145) | μ-opiate-receptor [1 μM], % inhibition (human μ-opiate receptor) | ORL-1 [1 μM], % inhibition (ORL1 receptor)
COC(=O)CCC(=O)N1CCc2c([nH]c3ccccc23)C12CCC(Cc1ccccc1)(N(C)C)CC2 (stereo not shown) |  |  |  | 69 nM | 1.05 | 66 nM |  | 
CN(C)C1(c2cccc(F)c2)CCC2(CC1)c1[nH]c3ccccc3c1CCN2C(=O)c1ccc(Cl)c(Cl)c1 (stereo not shown) |  |  |  | 26 nM | 1.37 | 19 nM |  | 
CN(C)C1(c2ccccc2)CCC2(CC1)c1[nH]c3ccccc3c1CCN2C(=O)C1CCCCC1 (stereo not shown) |  |  |  | 4.8 nM | 2.40 | 2 nM |  | 
CN(C)C1(c2ccccc2)CCC2(CC1)c1[nH]c3ccccc3c1CCN2C(=O)CCC1CCCC1 (stereo not shown) |  |  |  | 12 nM | 1.29 | 9.3 nM |  | 
CN(C)C1(c2ccccc2)CCC2(CC1)c1[nH]c3ccccc3c1CCN2C(=O)c1ccc(F)c(C(F)(F)F)c1 (stereo not shown) |  |  |  | 36 nM | 1.00 | 36 nM |  | 
CN(C)C1(c2ccccc2)CCC2(CC1)c1[nH]c3ccccc3c1CCN2C(=O)CC(C)(C)C (stereo not shown) |  |  |  | 17 nM | 3.54 | 4.8 nM |  | 
CN(C)C1(c2ccccc2)CCC2(CC1)c1[nH]c3ccccc3c1CCN2C(=O)c1ccc(F)c(F)c1 (stereo not shown) |  |  |  | 1.9 nM | 0.76 | 2.5 nM |  | 
COc1ccccc1C(=O)N1CCc2c([nH]c3ccccc23)C12CCC(c1cccc(F)c1)(N(C)C)CC2 (stereo not shown) |  |  |  | 2.7 nM | 2.78 | 0.97 nM |  | 
CN(C)C1(c2ccc(F)cc2)CCC2(CC1)OCCc1c2[nH]c2ccccc12 (stereo not shown) | 10 nM | 3.00 | 3.2 nM |  |  |  |  | 
CN(C)C1(c2cccc(F)c2)CCC2(CC1)c1[nH]c3ccccc3c1CCN2C(=O)c1ccc(C(F)(F)F)cc1F (stereo not shown) |  |  |  | 3.5 nM | 0.80 | 4.4 nM |  | 
CN(C)C1(c2cccc(F)c2)CCC2(CC1)c1[nH]c3ccccc3c1CCN2C(=O)c1ccccc1Br (stereo not shown) |  |  |  | 19 nM | 0.41 | 46 nM |  | 
CN(C)C1(c2cccc(F)c2)CCC2(CC1)c1[nH]c3ccccc3c1CCN2C(=O)c1ccc(F)cc1 (stereo not shown) |  |  |  | 13 nM | 2.83 | 4.6 nM |  | 
CN(C)C1(c2cccc(F)c2)CCC2(CC1)c1[nH]c3ccccc3c1CCN2C(=O)c1c(F)cccc1F (stereo not shown) |  |  |  | 7.8 nM | 0.88 | 8.9 nM |  | 
COc1ccc(C(=O)N2CCc3c([nH]c4ccccc34)C23CCC(c2cccc(F)c2)(N(C)C)CC3)cc1 (stereo not shown) |  |  |  | 87 nM | 2.29 | 38 nM |  | 
CN(C)C1(Cc2ccccc2)CCC2(CC1)c1[nH]c3ccccc3c1CCN2C(=O)c1ccco1 (stereo not shown) |  |  |  | 3.4 nM | 0.63 | 5.4 nM |  | 
CN(C)C1(c2ccccc2)CCC2(CC1)OCCc1c2[nH]c2c(Cl)c(Cl)ccc12 (stereo not shown) | 1.4 nM | 0.31 | 4.5 nM |  |  |  |  | 
CN(C)C1(c2ccccc2)CCC2(CC1)c1[nH]c3ccccc3c1CCN2C(=O)c1ccc(Cl)cc1 (stereo not shown) |  |  |  | 10 nM | 0.91 | 11 nM |  | 
CN(C)C1(c2ccccc2)CCC2(CC1)NCCc1c2[nH]c2cc(F)ccc12 (stereo not shown) | 20 nM | 2.46 | 7 nM |  |  |  |  | 
CN(C)C1(c2ccccc2)CCC2(CC1)c1[nH]c3ccccc3c1CCN2C(=O)c1ccc(C(F)(F)F)cc1 (stereo not shown) |  |  |  | 17 nM | 2.18 | 7.8 nM |  | 
CN(C)C1(c2cccc(F)c2)CCC2(CC1)c1[nH]c3ccccc3c1CCN2C(=O)c1cc(C(F)(F)F)ccc1F (stereo not shown) |  |  |  | 88 nM | 0.80 | 110 nM |  | 
Cc1ccccc1C(=O)N1CCc2c([nH]c3ccccc23)C12CCC(c1cccc(F)c1)(N(C)C)CC2 (stereo not shown) |  |  |  | 9.4 nM | 1.02 | 9.2 nM |  | 
CCCCC(=O)N1CCc2c([nH]c3ccccc23)C12CCC(c1cccc(F)c1)(N(C)C)CC2 (stereo not shown) |  |  |  | 13 nM | 3.42 | 3.8 nM |  | 
CN(C)C1(c2ccccc2)CCC2(CC1)NCCc1c2oc2ccccc12 (stereo not shown) |  |  | 70 nM |  |  |  |  | 
